# Results: US12180221B2, “Compounds and uses thereof” (JANSSEN PHARMACEUTICA NV, priority 2018, dated 2024)
# Protein sequences, listed by entry. Tags and fused reporters are not part of them.
# UniProt O00767, whole entry: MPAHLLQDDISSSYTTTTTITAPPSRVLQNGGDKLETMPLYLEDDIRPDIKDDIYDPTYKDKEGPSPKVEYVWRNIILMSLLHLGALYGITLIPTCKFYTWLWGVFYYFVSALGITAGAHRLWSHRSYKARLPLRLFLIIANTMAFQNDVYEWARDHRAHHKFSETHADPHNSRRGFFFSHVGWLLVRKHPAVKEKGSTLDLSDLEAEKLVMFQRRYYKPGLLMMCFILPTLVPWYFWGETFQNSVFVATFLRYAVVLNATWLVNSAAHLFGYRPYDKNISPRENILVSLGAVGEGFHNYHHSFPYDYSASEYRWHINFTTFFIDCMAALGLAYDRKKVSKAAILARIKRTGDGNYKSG
# UniProt Q86SK9, whole entry: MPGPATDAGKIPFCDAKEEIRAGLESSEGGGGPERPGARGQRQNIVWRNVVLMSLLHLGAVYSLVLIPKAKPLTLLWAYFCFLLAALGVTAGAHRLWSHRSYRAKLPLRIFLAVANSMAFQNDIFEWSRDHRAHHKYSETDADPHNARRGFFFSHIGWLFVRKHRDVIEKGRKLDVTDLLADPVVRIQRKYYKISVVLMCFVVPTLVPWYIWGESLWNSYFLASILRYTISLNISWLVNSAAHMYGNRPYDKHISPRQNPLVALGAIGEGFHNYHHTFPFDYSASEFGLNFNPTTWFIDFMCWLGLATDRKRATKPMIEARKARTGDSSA
# Key:
# [1] = biological target: human SCD1 (Homo sapiens, UniProt O00767); experiment: Yeast growth assay, strain expressing human SCD1 as the sole desaturase (reduced growth as surrogate for SCD inhibition); format: cell-based; details: read-out: SCD1 IC50, growth (OD600) after 40 h at 30° C.
# [2] = biological target: human SCD5 (Homo sapiens, UniProt Q86SK9); experiment: Yeast growth assay, strain expressing human SCD5 as the sole desaturase (reduced growth as surrogate for SCD inhibition); format: cell-based; details: read-out: SCD5 IC50, growth (OD600) after 40 h at 30° C.
compound,measurement,setting,value
CN1N=C(C(=O)Nc2ccc(Cc3ccc(Cl)c(F)c3)cn2)CCC1=O,IC50,[1],2070 nM
same,IC50,[2],20 nM
